Tests used:
Assay in all cases: holdup assay
Format in all cases: binding, human
MAGI3 PDZ5 = details: PDZ about 4 μM; two independent experiments
PTPN4 PDZ1 = details: PDZ about 4 μM; two independent experiments
DLG2 PDZ2 = details: PDZ about 4 μM; two independent experiments
PARD3 PDZ3 = details: PDZ about 4 μM; two independent experiments
LIN7C PDZ1 = details: PDZ about 4 μM; sd not given
MPDZ PDZ9 = details: PDZ about 4 μM; two independent experiments
CASK PDZ1 = details: PDZ about 4 μM; two independent experiments
SDCBP2 PDZ1 = details: PDZ about 4 μM; two independent experiments
HTRA1 PDZ1 = details: PDZ about 4 μM; two independent experiments
LNX2 PDZ4 = details: PDZ about 4 μM; two independent experiments
DVL3 PDZ1 = details: PDZ about 4 μM; two independent experiments
SIPA1L1 PDZ1 = details: PDZ about 4 μM; two independent experiments
MPDZ PDZ7 = details: PDZ about 4 μM; two independent experiments
RADIL PDZ1 = details: PDZ about 4 μM; two independent experiments
PDZD7 PDZ1 = details: PDZ about 4 μM; two independent experiments
GRIP1 PDZ3 = details: PDZ about 4 μM; sd not given
DEPTOR PDZ1 = details: PDZ about 4 μM; sd not given
SNTB1 PDZ1 = details: PDZ about 4 μM; two independent experiments
DLG2 PDZ1 = details: PDZ about 4 μM; two independent experiments
RIMS2 PDZ1 = details: PDZ about 4 μM; two independent experiments
SCRIB PDZ4 = details: PDZ about 4 μM; two independent experiments
PARD3 PDZ2 = details: PDZ about 4 μM; two independent experiments
NHERF4 PDZ3 = details: PDZ about 4 μM; two independent experiments
RIMS1 PDZ1 = details: PDZ about 4 μM; two independent experiments
SIPA1L2 PDZ1 = details: PDZ about 4 μM; two independent experiments
InaDl PDZ6 = details: PDZ about 4 μM; two independent experiments
FRMPD2 PDZ3 = details: PDZ about 4 μM; two independent experiments
MAGI1 PDZ2 = details: PDZ about 4 μM; two independent experiments
GRIP2 PDZ3 = details: PDZ about 4 μM; two independent experiments
MPDZ PDZ3 = details: PDZ about 4 μM; two independent experiments
PREX1 PDZ2 = details: PDZ about 4 μM; two independent experiments
MPP6 PDZ1 = details: PDZ about 4 μM; two independent experiments
PDLIM7 PDZ1 = details: PDZ about 4 μM; two independent experiments
PARD6G PDZ1 = details: PDZ about 4 μM; two independent experiments
IL16 PDZ1 = details: PDZ about 4 μM; two independent experiments
LNX1 PDZ2 = details: PDZ about 4 μM; sd not given
FRMPD2 PDZ2 = details: PDZ about 4 μM; two independent experiments
HTRA2 PDZ1 = details: PDZ about 4 μM; two independent experiments
APBA1 PDZ1 = details: PDZ about 4 μM; sd not given
SNTB2 PDZ1 = details: PDZ about 4 μM; two independent experiments
TJP3 PDZ3 = details: PDZ about 4 μM; two independent experiments
IL16 PDZ4 = details: PDZ about 4 μM; two independent experiments
PDZD2 PDZ1 = details: PDZ about 4 μM; two independent experiments
LIMK1 PDZ1 = details: PDZ about 4 μM; two independent experiments
DLG5 PDZ1 = details: PDZ about 4 μM; sd not given
LIMK2 PDZ1 = details: PDZ about 4 μM; two independent experiments
TJP2 PDZ2 = details: PDZ about 4 μM; two independent experiments
USH1C PDZ1 = details: PDZ about 4 μM; sd not given
DVL1 PDZ1 = details: PDZ about 4 μM; two independent experiments
TJP1 PDZ3 = details: PDZ about 4 μM; two independent experiments
InaDl PDZ8 = details: PDZ about 4 μM; two independent experiments
DFNB31 PDZ3 = details: PDZ about 4 μM; two independent experiments

Substance: Biotin-(PEG3)-GFQNTDDVQTSF [ACE2 PBM peptide]
- BI (binding intensity) (MAGI3 PDZ5): 0.14
- BI (binding intensity) (PTPN4 PDZ1): 0.13
- BI (binding intensity) (DLG2 PDZ2): 0.13
- BI (binding intensity) (PARD3 PDZ3): 0.09
- BI (binding intensity) (LIN7C PDZ1): 0.05
- BI (binding intensity) (MPDZ PDZ9): 0.03
- BI (binding intensity) (CASK PDZ1): 0.03
- BI (binding intensity) (SDCBP2 PDZ1): 0.03
- BI (binding intensity) (HTRA1 PDZ1): 0.02
- BI (binding intensity) (LNX2 PDZ4): 0.01
- BI (binding intensity) (DVL3 PDZ1): 0.01
- BI (binding intensity) (SIPA1L1 PDZ1): 0.00
- BI (binding intensity) (MPDZ PDZ7): 0.00
- BI (binding intensity) (RADIL PDZ1): 0.00
- BI (binding intensity) (PDZD7 PDZ1): 0.00
- BI (binding intensity) (GRIP1 PDZ3): -0.01
- BI (binding intensity) (DEPTOR PDZ1): -0.01
- BI (binding intensity) (SNTB1 PDZ1): -0.01
- BI (binding intensity) (DLG2 PDZ1): -0.01
- BI (binding intensity) (RIMS2 PDZ1): -0.02
- BI (binding intensity) (SCRIB PDZ4): -0.02
- BI (binding intensity) (PARD3 PDZ2): -0.02
- BI (binding intensity) (NHERF4 PDZ3): -0.02
- BI (binding intensity) (RIMS1 PDZ1): -0.02
- BI (binding intensity) (SIPA1L2 PDZ1): -0.03
- BI (binding intensity) (InaDl PDZ6): -0.03
- BI (binding intensity) (FRMPD2 PDZ3): -0.03
- BI (binding intensity) (MAGI1 PDZ2): -0.04
- BI (binding intensity) (GRIP2 PDZ3): -0.04
- BI (binding intensity) (MPDZ PDZ3): -0.04
- BI (binding intensity) (PREX1 PDZ2): -0.05
- BI (binding intensity) (MPP6 PDZ1): -0.05
- BI (binding intensity) (PDLIM7 PDZ1): -0.05
- BI (binding intensity) (PARD6G PDZ1): -0.05
- BI (binding intensity) (IL16 PDZ1): -0.06
- BI (binding intensity) (LNX1 PDZ2): -0.07
- BI (binding intensity) (FRMPD2 PDZ2): -0.07
- BI (binding intensity) (HTRA2 PDZ1): -0.08
- BI (binding intensity) (APBA1 PDZ1): -0.08
- BI (binding intensity) (SNTB2 PDZ1): -0.08
- BI (binding intensity) (TJP3 PDZ3): -0.08
- BI (binding intensity) (IL16 PDZ4): -0.09
- BI (binding intensity) (PDZD2 PDZ1): -0.09
- BI (binding intensity) (LIMK1 PDZ1): -0.10
- BI (binding intensity) (DLG5 PDZ1): -0.10
- BI (binding intensity) (LIMK2 PDZ1): -0.11
- BI (binding intensity) (TJP2 PDZ2): -0.12
- BI (binding intensity) (USH1C PDZ1): -0.13
- BI (binding intensity) (DVL1 PDZ1): -0.14
- BI (binding intensity) (TJP1 PDZ3): -0.14
- BI (binding intensity) (InaDl PDZ8): -0.24
- BI (binding intensity) (DFNB31 PDZ3): -0.24

From article PMC8624105 (Viruses, 2021)
